According to patent US8518388B2, “Cyclodextrin-based polymers for therapeutics delivery” (dated 2013):

Legend:
[1] = system: human colorectal adenocarcinoma HT29; test: IC50 via MTT assay, HT29; settings: read-out: IC50, HT29; MTT assay after 72 h; CPT equivalent for HGGG6 and HG6
[2] = system: human ovarian carcinoma A2780 cell line; test: IC50 via MTT assay, A2780; settings: read-out: IC50, A2780; MTT assay after 72 h; CPT equivalent for HGGG6 and HG6
[3] = system: human colonic adeoncarcinoma LS174T cell line; test: IC50 via MTT assay, LS174T; settings: read-out: IC50, LS174T; MTT assay after 72 h; CPT equivalent for HGGG6 and HG6
[4] = system: human LS174T colon carcinoma; test: Antitumor efficacy study, LS174T xenograft
[5] = Lactone stability (lactone ring opening) in PBS
[6] = Hydrolysis of CPT-peptide ester bond in aqueous solution; settings: HPLC with UV detector
[7] = system: human prostate carcinoma PC-3; test: IC50 via MTT assay, PC-3; settings: read-out: IC50, PC3; MTT assay after 72 h; CPT equivalent for HGGG6 and HG6
[8] = Determination of maximum tolerable dose (MTD) for CDP-CPT conjugates
[9] = CPT 9 mg/kg i.p. Q4D × 2 (Group 2)
[10] = PBS buffer pH 7.4, room temperature, 7 hours
[11] = 2.25 mg CPT/kg i.v. Days 1, 5, 9
[12] = 4.5 mg CPT/kg i.v. Days 1, 5, 9

CC[C@@]1(O)C(=O)OCc2c1cc1n(c2=O)Cc2cc3ccccc3nc2-1
IC50 [1]: 20 nM
IC50 [2]: 7 nM
IC50 [3]: 5 nM
% TGD [4, 9]: 47%
Maximum mean body weight (MBW) loss [4, 9]: 13.1%
Median TTE (time to endpoint 1500 mg) [4, 9]: 51.4 days
NEU (number of mice euthanized after reaching endpoint) [4, 9]: 5
NTR (number of treatment-related death) [4, 9]: 2
Ns (mice surviving to Day 114) [4, 9]: — (0)
T-C [4, 9]: 16.5 days
toxicity judgement at this dose ([4]; CPT 9 mg/kg i.p., two treatment-related deaths on Day 9): toxic
CPT lactone form transformed to its carboxylate form [5, 10]: more than 60%

CC[C@@]1(OC(=O)[C@H](CCCCNC(=O)OCc2ccccc2)NC(=O)OCc2ccccc2)C(=O)OCc2c1cc1n(c2=O)Cc2cc3ccccc3nc2-1
transformation of lactone form to carboxylate form ([5]; PBS buffer, compared with free CPT (FIG. 4)): much slower than that of free CPT
Hydrolysis in aqueous solution [6]: very slow

Gly-CPT
carboxylate form detected (lactone ring opening) [5, 10]: no carboxylate forms

GlyGlyGly-CPT
carboxylate form detected (lactone ring opening) [5, 10]: no carboxylate forms

Poly(CDDCys-PA-PEG)-Gly-CPT
IC50 [1]: 50 nM
IC50 [7]: 250 nM
IC50 [2]: 25 nM
IC50 [3]: 50 nM
% TGD ([4]; 4.5 mg CPT/kg i.v. Q4D × 3): 113%
Median TTE (time to endpoint 1500 mg) ([4]; 4.5 mg CPT/kg i.v. Q4D × 3): 74.2 days
Median Tumor Burden on day 114 ([4]; 4.5 mg CPT/kg i.v. Q4D × 3): 668 mg
NEU (number of mice euthanized after reaching endpoint) ([4]; 4.5 mg CPT/kg i.v. Q4D × 3): 3
NTR (number of treatment-related death) ([4]; 4.5 mg CPT/kg i.v. Q4D × 3): 1
Ns (mice surviving to Day 114) ([4]; 4.5 mg CPT/kg i.v. Q4D × 3): 2
T-C ([4]; 4.5 mg CPT/kg i.v. Q4D × 3): 39.3 days
% TGD ([4]; 9 mg CPT/kg i.v. Q4D × 3): 227%
Median TTE (time to endpoint 1500 mg) ([4]; 9 mg CPT/kg i.v. Q4D × 3): 114 days and 114.0 days
Median Tumor Burden on day 114 ([4]; 9 mg CPT/kg i.v. Q4D × 3): 394 mg
NEU (number of mice euthanized after reaching endpoint) ([4]; 9 mg CPT/kg i.v. Q4D × 3): 3
NTR (number of treatment-related death) ([4]; 9 mg CPT/kg i.v. Q4D × 3): 0
Ns (mice surviving to Day 114) ([4]; 9 mg CPT/kg i.v. Q4D × 3): 4
T-C ([4]; 9 mg CPT/kg i.v. Q4D × 3): 79.1 days
Maximum mean body weight (MBW) loss ([4]; 9 mg CPT/kg i.v. Q4D × 3 (MTD)): 3.4%
tumor growth inhibition compared to D5W, CPT and irinotecan ([4]; high MW conjugates administered at their MTDs (FIG. 8)): more prolonged tumor growth inhibition
Day of max % BW loss [8, 11]: 9 days
Max % BW loss [8, 11]: −2.9%
NTR/N (treatment-related deaths / mice treated) [8, 11]: 0/5
Day of max % BW loss [8, 12]: 5 days
Max % BW loss [8, 12]: −4.4%
NTR/N (treatment-related deaths / mice treated) [8, 12]: 0/5
Day of max % BW loss ([8]; 9 mg CPT/kg i.v. Days 1, 5, 9): 9 days
Max % BW loss ([8]; 9 mg CPT/kg i.v. Days 1, 5, 9): −6.1%
NTR/N (treatment-related deaths / mice treated) ([8]; 9 mg CPT/kg i.v. Days 1, 5, 9): 0/5
Day of max % BW loss ([8]; 18 mg CPT/kg i.v. Days 1, 5, 9): 3 days
Max % BW loss ([8]; 18 mg CPT/kg i.v. Days 1, 5, 9): −22.1%
NTR/N (treatment-related deaths / mice treated) ([8]; 18 mg CPT/kg i.v. Days 1, 5, 9): 3/3
Day of max % BW loss ([8]; 36 mg CPT/kg i.v. Days 1, 5, 9): 3 days
Max % BW loss ([8]; 36 mg CPT/kg i.v. Days 1, 5, 9): −23.9%
NTR/N (treatment-related deaths / mice treated) ([8]; 36 mg CPT/kg i.v. Days 1, 5, 9): 3/3
Day of max % BW loss ([8]; 54 mg CPT/kg i.v. Days 1, 5, 9): 3 days
Max % BW loss ([8]; 54 mg CPT/kg i.v. Days 1, 5, 9): −28.5%
NTR/N (treatment-related deaths / mice treated) ([8]; 54 mg CPT/kg i.v. Days 1, 5, 9): 3/3
Maximum tolerable dose (MTD) ([8]; i.v. tail vein injection Days 1, 5, 9, nude mice): 9 mg CPT/kg

Several values for one entry are separate records, joined by “and”; a condition that tells them apart may be missing. Identical values can stand only once.
